The entries are a selection whose mix differs from that of the whole data set. Records with an inconclusive call do not appear. The source made the active and inactive calls. Calls follow the shape of the dose curve; as a rule, active = well fitted inhibition curve with a large enough effect; inconclusive = small, poorly fitted or top-dose-only effect, or another doubt; inactive = no such curve, though single readings can be large or run the other way.
These molecules were tested against DNA polymerase iota (Homo sapiens) (UniProt Q9UNA4) (assay: qHTS for Inhibitors of Polymerase Iota). Settings: Pol iota fluorescent replication assay, 10 min; at 115 µM (top of the series).

By UniProt entry, the sequences of proteins in these tests, tags left out.
UniProt Q9UNA4, whole entry: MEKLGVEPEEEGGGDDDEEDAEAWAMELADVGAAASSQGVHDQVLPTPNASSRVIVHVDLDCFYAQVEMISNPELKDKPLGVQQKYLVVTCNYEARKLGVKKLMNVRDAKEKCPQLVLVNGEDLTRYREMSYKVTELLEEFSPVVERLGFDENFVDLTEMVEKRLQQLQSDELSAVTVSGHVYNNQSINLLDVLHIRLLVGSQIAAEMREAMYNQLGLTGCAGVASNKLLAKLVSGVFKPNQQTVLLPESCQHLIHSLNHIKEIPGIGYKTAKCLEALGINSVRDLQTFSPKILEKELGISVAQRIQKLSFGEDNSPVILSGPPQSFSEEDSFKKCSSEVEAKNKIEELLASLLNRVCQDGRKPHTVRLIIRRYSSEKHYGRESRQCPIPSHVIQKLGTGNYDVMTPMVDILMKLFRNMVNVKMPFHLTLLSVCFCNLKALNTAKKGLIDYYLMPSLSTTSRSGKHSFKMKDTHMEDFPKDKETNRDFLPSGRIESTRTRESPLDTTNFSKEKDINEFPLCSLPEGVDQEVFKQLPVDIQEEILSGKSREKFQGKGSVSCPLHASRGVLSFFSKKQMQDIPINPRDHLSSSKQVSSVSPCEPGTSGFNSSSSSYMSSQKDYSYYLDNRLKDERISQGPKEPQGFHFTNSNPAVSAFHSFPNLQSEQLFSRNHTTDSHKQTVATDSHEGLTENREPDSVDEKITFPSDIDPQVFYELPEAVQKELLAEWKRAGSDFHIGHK

Structure (SMILES)	activity, negative = inhibition
CCC(=O)N(c1ccccc1)C1(COC)CCN(CCn2nnn(CC)c2=O)CC1	inactive: 12.2%
